Patent US10022461B2, “Pyrrolo[2,3-C]pyridines as imaging agents for neurofibrilary tangles” (MERCK SHARP & DOHME CORP., priority 2014, dated 2018)

Sequences of proteins named here, by UniProt entry; tags and fusion partners are left off. Residues count along the entry.
UniProt P10636, 2-758 limits assumed: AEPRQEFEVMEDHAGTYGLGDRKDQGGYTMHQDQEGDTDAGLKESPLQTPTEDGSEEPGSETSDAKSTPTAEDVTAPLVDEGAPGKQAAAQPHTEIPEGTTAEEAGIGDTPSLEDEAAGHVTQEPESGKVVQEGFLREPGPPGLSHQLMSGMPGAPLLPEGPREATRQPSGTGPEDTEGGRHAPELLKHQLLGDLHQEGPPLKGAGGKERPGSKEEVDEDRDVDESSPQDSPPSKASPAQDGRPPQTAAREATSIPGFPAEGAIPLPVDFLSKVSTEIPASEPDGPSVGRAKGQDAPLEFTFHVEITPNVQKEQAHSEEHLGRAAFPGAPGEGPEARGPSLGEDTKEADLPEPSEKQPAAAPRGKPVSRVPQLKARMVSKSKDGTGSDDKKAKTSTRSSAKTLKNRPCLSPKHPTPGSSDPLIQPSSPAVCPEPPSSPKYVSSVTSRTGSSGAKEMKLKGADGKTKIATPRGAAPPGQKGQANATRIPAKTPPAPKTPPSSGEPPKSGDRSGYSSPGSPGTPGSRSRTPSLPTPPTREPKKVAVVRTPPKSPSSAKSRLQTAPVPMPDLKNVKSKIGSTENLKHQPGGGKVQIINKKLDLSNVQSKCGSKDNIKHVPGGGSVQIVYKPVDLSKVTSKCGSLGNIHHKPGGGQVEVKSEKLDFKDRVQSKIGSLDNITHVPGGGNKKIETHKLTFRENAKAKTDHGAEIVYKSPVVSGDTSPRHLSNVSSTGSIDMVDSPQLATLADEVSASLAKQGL

Target: tau (Homo sapiens, UniProt P10636)
Experiment: hot saturation binding assay of [^3H]-6 in AD brain homogenates
Conditions: read-out: dissociation constant, FIG. 1
Procedure: The frozen human brain samples of Alzheimer's disease (AD) were purchased from Analytic Biological Services Inc. They were postmortem tissue from donors with clinical diagnosis of AD. As much of the white matter was dissected out of the frontal cortex in order to enrich the tissue preparations for gray matter. Brain homogenates of gray matter enriched frontal cortex were prepared by homogenizing the tissue in ice cold Phosphate Buffered Saline (PBS), pH 7.4 at 80 mg wet weight tissue per 1 mL for 45 seconds at 4° C. on setting 16 of Polytron. The homogenate was further diluted with ice cold PBS to 30 mg wet weight tissue per 1 mL and homogenized for an additional minute as described above. Homogenates were aliquoted in 5 ml/tube and store at −70° C. until use. […] Self-block with unlabeled compound was used to determine non-specific binding. Saturation data was analyzed using Graphpad/Prism software.

[3H]c1cc2ccn(-c3cc4ccccc4c([3H])n3)c2c([3H])n1 gave a Kd of 0.2 nM.
